Results published in ChEMBL document CHEMBL1157602, “Structural basis for platelet antiaggregation by angiotensin II type 1 receptor antagonist losartan (DuP-753) via glycoprotein VI” (J Med Chem, 2010).

Target: T1, Platelet glycoprotein VI (Homo sapiens, UniProt Q9HCN6)
T1 sequence (Q9HCN6 whole entry): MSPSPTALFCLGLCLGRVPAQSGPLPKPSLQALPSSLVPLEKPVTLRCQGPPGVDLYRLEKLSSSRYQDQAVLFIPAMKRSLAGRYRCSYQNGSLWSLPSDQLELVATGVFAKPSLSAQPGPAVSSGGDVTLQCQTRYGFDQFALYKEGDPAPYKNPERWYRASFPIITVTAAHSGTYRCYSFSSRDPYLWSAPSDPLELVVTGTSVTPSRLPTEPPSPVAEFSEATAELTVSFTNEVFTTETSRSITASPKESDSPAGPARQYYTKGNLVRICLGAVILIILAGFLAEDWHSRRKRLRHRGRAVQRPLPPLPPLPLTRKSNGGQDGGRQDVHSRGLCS
Assay: Binding affinity to human N-terminal Ig-like domain D1D2 GPVI expressed in Escherichia coli DH5alpha by NMR spectroscopy

Compound: CCCCc1nc(Cl)c(CO)n1Cc1ccc(-c2ccccc2-c2nn[nH]n2)cc1 [LOSARTAN]
- Kd: 170 µM
